Values quoted from earlier work in publication PMC11452715, “Pharmacokinetic and pharmacodynamic evaluation of various vasopressin doses and routes of administration in a neonatal piglet model” (Scientific Reports, 2024).

Conditions: in vivo; cited from earlier work

Q: What does the source list for “1-deamino-8-D-arginine vasopressin [DDAVP]”?
A: bioavailability: approximately 10%; time of peak plasma concentrations after drug administration: 1 to 2 h
